The text below walks through data of PubChem BioAssay AID434955 (Southern Research Specialized Biocontainment Screening …, 2010).

In general, inhibition refers to the change of the read-out against control, counted positive when it falls.

The list shows a part of the results, in another mix than the full data.

This assay is described as follows: beta-lactam sensitization of Mtb H37Rv, H37Rv (AID 434955).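 Further: growth measured after seven days incubation then overnight dye step; 0% = bacteria only wells and 100% = bacteria with antibiotic.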 To be noted: M. tuberculosis H37Rv growth with meropenem, percent inhibition; measured here: primary screen without meropenem; at 25 µM.
Turning to `CCCCCCCCCCCCCCCC[N+](C)(C)CCN(Cc1ccc(OC)cc1)c1ncccn1`, the inhibition was -6.92%.
